Data on 15 compounds can be found in PubChem BioAssay.

By UniProt entry, the sequences of proteins in these tests, tags left out. Where a name states a change or a piece, a line headed by the entry shows the natural chain unless it says otherwise.
UniProt Q04721: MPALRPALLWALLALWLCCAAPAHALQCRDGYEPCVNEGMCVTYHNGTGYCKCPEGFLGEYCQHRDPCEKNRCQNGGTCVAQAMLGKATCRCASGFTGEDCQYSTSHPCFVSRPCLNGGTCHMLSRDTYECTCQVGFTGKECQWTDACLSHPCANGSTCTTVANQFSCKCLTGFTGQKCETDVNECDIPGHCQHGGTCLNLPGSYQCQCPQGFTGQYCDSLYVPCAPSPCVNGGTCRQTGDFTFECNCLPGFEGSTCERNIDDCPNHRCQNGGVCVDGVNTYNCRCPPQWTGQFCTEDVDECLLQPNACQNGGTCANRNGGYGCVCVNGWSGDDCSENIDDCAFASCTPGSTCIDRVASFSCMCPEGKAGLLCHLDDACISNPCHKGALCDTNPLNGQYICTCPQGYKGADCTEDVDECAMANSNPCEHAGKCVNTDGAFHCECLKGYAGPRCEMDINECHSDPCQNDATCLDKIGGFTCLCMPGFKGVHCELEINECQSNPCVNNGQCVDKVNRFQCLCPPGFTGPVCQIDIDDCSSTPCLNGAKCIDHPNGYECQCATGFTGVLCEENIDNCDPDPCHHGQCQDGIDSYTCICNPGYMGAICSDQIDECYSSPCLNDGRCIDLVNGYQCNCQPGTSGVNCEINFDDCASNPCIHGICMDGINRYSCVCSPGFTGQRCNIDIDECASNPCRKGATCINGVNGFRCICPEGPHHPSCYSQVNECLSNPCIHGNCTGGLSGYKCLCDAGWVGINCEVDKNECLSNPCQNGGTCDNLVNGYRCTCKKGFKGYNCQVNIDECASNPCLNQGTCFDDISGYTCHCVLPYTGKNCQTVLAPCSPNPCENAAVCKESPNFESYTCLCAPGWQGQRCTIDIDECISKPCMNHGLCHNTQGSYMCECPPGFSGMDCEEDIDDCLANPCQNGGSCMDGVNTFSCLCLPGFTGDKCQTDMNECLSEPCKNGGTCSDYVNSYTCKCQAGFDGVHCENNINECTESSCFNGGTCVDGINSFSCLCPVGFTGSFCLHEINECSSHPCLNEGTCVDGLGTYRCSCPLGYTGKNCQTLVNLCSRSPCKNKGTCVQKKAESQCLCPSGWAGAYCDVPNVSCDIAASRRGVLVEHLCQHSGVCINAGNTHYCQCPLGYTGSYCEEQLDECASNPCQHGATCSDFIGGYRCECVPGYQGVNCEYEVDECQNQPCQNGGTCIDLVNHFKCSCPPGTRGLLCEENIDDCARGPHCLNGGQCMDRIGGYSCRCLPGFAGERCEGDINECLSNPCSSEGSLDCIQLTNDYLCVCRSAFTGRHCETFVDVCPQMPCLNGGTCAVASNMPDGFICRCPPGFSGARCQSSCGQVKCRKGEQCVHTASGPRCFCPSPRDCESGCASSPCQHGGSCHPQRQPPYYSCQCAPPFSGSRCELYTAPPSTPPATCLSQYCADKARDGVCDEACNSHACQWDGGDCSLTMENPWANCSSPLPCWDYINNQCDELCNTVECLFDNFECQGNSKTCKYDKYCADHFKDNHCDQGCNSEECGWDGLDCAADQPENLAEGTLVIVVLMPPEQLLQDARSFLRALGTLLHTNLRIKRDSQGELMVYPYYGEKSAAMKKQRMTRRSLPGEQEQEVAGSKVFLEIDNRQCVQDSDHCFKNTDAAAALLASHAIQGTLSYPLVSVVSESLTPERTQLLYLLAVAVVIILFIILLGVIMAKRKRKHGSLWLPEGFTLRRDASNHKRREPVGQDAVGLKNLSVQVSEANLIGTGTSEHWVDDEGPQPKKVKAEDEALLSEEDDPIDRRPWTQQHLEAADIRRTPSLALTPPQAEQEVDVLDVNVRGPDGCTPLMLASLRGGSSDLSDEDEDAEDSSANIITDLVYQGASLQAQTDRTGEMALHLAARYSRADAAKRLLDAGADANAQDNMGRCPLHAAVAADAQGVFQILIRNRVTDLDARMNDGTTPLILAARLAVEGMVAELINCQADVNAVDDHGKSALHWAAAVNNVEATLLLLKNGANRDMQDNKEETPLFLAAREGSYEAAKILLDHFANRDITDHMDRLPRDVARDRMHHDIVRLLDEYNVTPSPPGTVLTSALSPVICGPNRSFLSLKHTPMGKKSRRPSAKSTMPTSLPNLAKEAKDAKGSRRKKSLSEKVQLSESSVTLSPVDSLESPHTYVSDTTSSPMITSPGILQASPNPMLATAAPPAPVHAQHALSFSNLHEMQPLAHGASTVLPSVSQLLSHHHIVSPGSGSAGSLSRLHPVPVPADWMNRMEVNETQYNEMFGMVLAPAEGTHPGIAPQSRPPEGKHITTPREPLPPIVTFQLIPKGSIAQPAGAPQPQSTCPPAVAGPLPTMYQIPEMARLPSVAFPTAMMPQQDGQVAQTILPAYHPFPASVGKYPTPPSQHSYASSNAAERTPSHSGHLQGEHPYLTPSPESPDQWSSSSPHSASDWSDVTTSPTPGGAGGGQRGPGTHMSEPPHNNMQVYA
UniProt Q02297: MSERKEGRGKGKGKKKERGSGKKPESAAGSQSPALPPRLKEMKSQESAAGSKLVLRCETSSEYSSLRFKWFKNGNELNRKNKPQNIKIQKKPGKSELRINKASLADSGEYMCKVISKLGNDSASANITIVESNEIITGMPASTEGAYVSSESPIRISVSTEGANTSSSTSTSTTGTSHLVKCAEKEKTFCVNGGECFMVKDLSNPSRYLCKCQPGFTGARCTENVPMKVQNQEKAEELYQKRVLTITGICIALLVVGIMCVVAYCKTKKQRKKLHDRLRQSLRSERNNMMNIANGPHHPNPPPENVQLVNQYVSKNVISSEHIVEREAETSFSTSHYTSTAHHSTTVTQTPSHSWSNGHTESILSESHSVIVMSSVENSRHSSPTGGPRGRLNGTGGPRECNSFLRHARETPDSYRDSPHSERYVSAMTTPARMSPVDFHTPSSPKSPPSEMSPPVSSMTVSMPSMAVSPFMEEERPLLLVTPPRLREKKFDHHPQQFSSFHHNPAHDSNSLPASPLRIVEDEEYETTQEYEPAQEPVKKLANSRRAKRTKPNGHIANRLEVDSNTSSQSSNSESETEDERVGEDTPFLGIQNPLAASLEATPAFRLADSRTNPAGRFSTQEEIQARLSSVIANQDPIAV

Each structure is given as a SMILES string. Only a part is listed here, and it is no random draw. Active and inactive are the calls of the source.

A short description of assay [1]: binders of probe aFSTL3 on microarray, primary screen, stem cell growth factor project, biochemical, small-molecule microarray, fluorescence 635/667 (AID 1064).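 Also: measures binding of the biotinylated anti-FSTL3 antibody to printed compounds.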 The settings on record: higher = more signal.
A short description of assay [2]: binders from COS7 lysate, DM2A8 probe, primary screen, torsin A project, cell lysate, small-molecule microarray, fluorescence 635/667 (AID 1065). Particulars: higher = more signal, COS7 lysate expressing mutant human TOR1A.
Assay [3] in a line: binders of probe aFGF2 on microarray, primary screen, stem cell growth factor project, biochemical, small-molecule microarray, fluorescence 635/667 (AID 1067).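 Also: measures binding of biotinylated aFGF2 protein to printed compounds on slides; z-score merges feature fluorescence and signal-to-noise across triplicate slides.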 The settings on record: higher = more signal.
Assay [4] in a line: binders of probe aFGF10 on microarray, primary screen, stem cell growth factor project, biochemical, small-molecule microarray, fluorescence 635/667 (AID 1071).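 Also: score merges 667 nm spot intensity and signal to noise from triplicate slides.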 Particulars: higher = more signal.
Assay [5] concerns the target Neurogenic locus notch homolog protein 2 (Homo sapiens) (UniProt Q04721). The assay can be described thus: Notch2 binders on small-molecule microarrays, primary screen, biochemical, small-molecule microarray, 635 nm fluorescence, stem cell growth factors (AID 1073). Particulars: Notch2 binding, higher = more signal.
The target in assay [6] is Pro-neuregulin-1, membrane-bound isoform (Homo sapiens) (UniProt Q02297). The assay can be described thus: NRG1 binders on small-molecule microarrays, primary screen, psychiatric disease protein project, biochemical, small-molecule microarray, fluorescence 635/667 (AID 1075).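 Also: score combines 667 nm spot fluorescence with signal to noise.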 Particulars: NRG1 binding, 635 nm fluorescence, higher = more signal.
In assay [7] the test system is Neuregulin-1 EGF-like domain. The assay can be described thus: binders of neuregulin-1 EGF-like domain, primary screen, biochemical, small-molecule microarray, 635 nm fluorescence (AID 1081).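 Also: binding of the protein to compounds printed on small-molecule microarray slides.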 The settings on record: small-molecule microarray binding, higher = more signal.
Assay [8] is described as follows: FRG1 promoter luciferase signal modulators, primary screen, FRG1 inhibition for FSHD, cell-based, C2C12 myotubes, firefly/Renilla luciferase, luminescence (AID 1084). The settings on record: higher = more signal, called active from +8 up or from −8 down.
Assay [9] can be described thus: binders of probe aFST on microarray, primary screen, stem cell growth factor project, biochemical, small-molecule microarray, fluorescence 635/667 (AID 1086).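 Also: score merges 667 nm fluorescence with signal-to-noise of each printed compound spot.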 The settings on record: higher = more signal.
Assay [10] in a line: binders of probe aHhip on microarray, primary screen, stem cell growth factor project, biochemical, small-molecule microarray, fluorescence 635/667 (AID 1087).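 Also: score merges spot fluorescence at 667nm with spot signal to noise ratio.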 Particulars: higher = more signal.

Take `CC1C=C(CCCO)C/C(=N/P(=O)(Oc2ccccc2)Oc2ccccc2)N1Cc1cccc(OC(F)(F)F)c1` (stereo not given): the composite z-score in [1] was -0.252; in assay [2] it was 0.107; in assay [3], -0.0691; in assay [4] it was -0.137; in assay [5], 0.0809; in assay [6], 1.37. Besides, the figures for the composite z-score in [7], in assay [9] and in [10] were 0.873, 0.429 and 0.527, respectively. In addition, the z-score in [8] was inactive: -0.332.

For `O=P(/N=C1/CC(c2ccc(CO)cc2)=CC(C2CC2)N1Cc1cc2c(cc1Br)OCO2)(Oc1ccccc1)Oc1ccccc1` (stereo not given), the composite z-score in assay [1] is -0.134; in assay [2] it was 1.24; in [3], 0.0418; in [4], 0.89; in assay [5] it was 1.38; in assay [6] it was 1.99. For the same compound, the values for the composite z-score in [7], in assay [9] and in assay [10] were 1.37, 0.55 and 0.829, respectively. Besides, in [8], the z-score was inactive: -3.18.

Turning to `COP(=O)(/N=C1/CC(CCCO)=CC(c2ccc(CN3CCCC3)cc2)N1C)OC` (stereo not given), the composite z-score in assay [1] was 0.143; in assay [2], 0.0238; in assay [3] it was 0.0204; in assay [4], 0.0696; in assay [5] it was -0.238; in [6] it was 0.293. For the same compound, the composite z-score was -0.579 in assay [7], 0.667 in assay [9] and -0.161 in [10]. Also, the z-score in assay [8] is inactive: -1.17.

For `O=P(/N=C1/CC(CCCO)=CC(C2CC2)N1Cc1sc2ccccc2c1Cl)(Oc1ccccc1)Oc1ccccc1` (stereo not given), the composite z-score was 0.169 in [1]; -0.264 in assay [2]; -0.0036 in assay [3]; 0.345 in assay [4]; 0.828 in assay [5]; 1.82 in assay [6]. Moreover, the composite z-score in [7] is 1.05; in assay [9] it was 0.657; in assay [10], -0.0296. In addition, the z-score in assay [8] was inactive: 0.354.

`O=P(/N=C1/CC(CCCO)=CC(c2cccs2)N1Cc1cc2c(cc1Br)OCO2)(Oc1ccccc1)Oc1ccccc1` (stereo not given): the composite z-score in assay [1] was -0.292; in assay [2], 0.237; in assay [3], -0.0342; in assay [4], 0.795; in assay [5] it was 1.58; in assay [6], 1.81. Besides, the results for the composite z-score in assay [7], in [9] and in assay [10] were 1.18, 0.977 and 0.213, respectively. In assay [8], the z-score is inactive: -2.92.

Regarding `CN1/C(=N\P(=O)(Oc2ccccc2)Oc2ccccc2)CC(c2ccc(CO)cc2)=CC1C1CC1` (stereo not given), the composite z-score in assay [1] was -0.831; in [2], 1.61; in assay [3], -0.242; in assay [4], 0.0993; in assay [5], 0.727; in assay [6], 2. For the same compound, the composite z-score in [7] was 1.33; in assay [9], -0.424; in assay [10], -0.304. Further, the z-score in assay [8] is inactive: -3.86.

Regarding `COP(=O)(/N=C1/CC(c2ccc(CO)cc2)=CC(c2cccs2)N1C)OC` (stereo not given), the composite z-score was 1.45 in assay [1]; 0.199 in assay [2]; -0.0006 in [3]; -0.0456 in [4]; -0.358 in assay [5]; 1.21 in assay [6]. Also, the results for the composite z-score in assay [7], in assay [9] and in assay [10] were 0.402, 0.64 and 0.194, respectively. Further, in assay [8], the z-score was inactive: 3.2.

Take `COP(=O)(/N=C1/CC(CCCO)=CC(c2ccc(CN3CCCC3)cc2)N1Cc1sc2ccccc2c1Cl)OC` (stereo not given): the composite z-score in [1] is 1.19; in [2] it was 1.21; in [3], 0.177; in assay [4], 0.217; in [5] it was -0.062; in assay [6], 0.0541. Also, the composite z-score in assay [7] was -0.456; in [9], 1.73; in assay [10], 0.141. Also, the z-score in [8] is inactive: 1.6.

For the compound `COP(=O)(/N=C1/CC(CCCO)=CC(C2CC2)N1Cc1cccc(OC(F)(F)F)c1)OC` (stereo not given), the composite z-score in [1] is -0.0191; in assay [2], -0.0918; in [3] it was -0.116; in assay [4], -0.0523; in assay [5], -0.618; in assay [6], 0.729. The composite z-score in assay [7] is -0.389; in [9], 0.226; in assay [10], 0.0052. Further, the z-score in [8] is inactive: -1.07.

Regarding `O=P(/N=C1/CC(c2ccc(CO)cc2)=CC(C2CC2)N1Cc1sc2ccccc2c1Cl)(Oc1ccccc1)Oc1ccccc1` (stereo not given), the composite z-score was -0.279 in assay [1]; 0.291 in assay [2]; -0.0125 in assay [3]; 1.16 in [4]; 1.34 in assay [5]; 1.7 in assay [6]. Moreover, the composite z-score in assay [7] amounted to 1.24; in assay [9] it was 0.566; in assay [10] it was 0.0373. Moreover, the z-score in [8] is inactive: -1.06.

Turning to `O=P(/N=C1/CC(CCCO)=CC(C2CC2)N1Cc1cc2c(cc1Br)OCO2)(Oc1ccccc1)Oc1ccccc1` (stereo not given), the composite z-score in [1] is 0.303; in assay [2], -0.028; in [3], 0.0036; in assay [4], 0.0841; in [5], 0.475; in assay [6], 2.07. Further, the composite z-score in assay [7] is 1.21; in [9], 0.17; in assay [10] it was -0.0373. Moreover, in assay [8], the z-score was inactive: -0.697.

Turning to `CN1/C(=N\P(=O)(Oc2ccccc2)Oc2ccccc2)CC(c2ccc(CO)cc2)=CC1c1cccs1` (stereo not given), the composite z-score in assay [1] was -0.811; in assay [2] it was 0.857; in assay [3], -0.0274; in assay [4], 0.231; in [5], 0.567; in [6] it was 2.38. In addition, the figures for the composite z-score in assay [7], in assay [9] and in [10] were 1.02, -0.213 and -0.4, respectively. The z-score in assay [8] was inactive: -4.99.

For the compound `COP(=O)(/N=C1/CC(CCCO)=CC(C2CC2)N1Cc1sc2ccccc2c1Cl)OC` (stereo not given), the composite z-score was 1.98 in assay [1]; -0.0324 in [2]; 0.122 in assay [3]; 0.931 in assay [4]; 1.13 in assay [5]; 0.96 in assay [6]. For the same compound, the composite z-score in assay [7] stood at 0.699; in assay [9], 1.33; in assay [10], 1.42. In [8], the z-score was inactive: 0.125.

On to `COP(=O)(/N=C1/CC(CCCO)=CC(c2ccc(CN3CCCC3)cc2)N1Cc1cccc(OC(F)(F)F)c1)OC` (stereo not given), for which the composite z-score is 0.411 in [1]; 1.02 in assay [2]; 0.0717 in assay [3]; 0.802 in assay [4]; 1.02 in assay [5]; 1.8 in [6]. Further, the composite z-score in assay [7] is 0.628; in assay [9], 0.814; in assay [10], 0.351. Moreover, in assay [8], the z-score was inactive: -1.25.

As to `COP(=O)(/N=C1/CC(CCCO)=CC(c2cccs2)N1C)OC` (stereo not given), the composite z-score in [1] was 1.42; in assay [2], 0.35; in assay [3], 0.252; in [4], 0.309; in [5], -0.185; in assay [6] it was 1.25. Also, the figures for the composite z-score in assay [7], in [9] and in assay [10] were 1, 1.19 and 0.568, respectively. In assay [8], the z-score was inactive: -0.193.
